pEC50, pIC50: −log10 of the molar value. Where two headings read alike, the source gives them in different places.
What was measured:
progesterone receptor = progesterone receptor (Homo sapiens (Human), UniProt P06401); conditions: for CF PR/CF MR: ratio of the competition factors CF(PR) and CF(MR)
androgen receptor [1] = target: T1, androgen receptor (Homo sapiens (Human), UniProt P10275); assay: cell-based
Experimental: 6. Determination of Androgenic/Antiandrogenic Action by Means of Transactivation Tests:
The androgenic/antiandrogenic action of the test substances was determined as for the transactivation tests described above.
The following modifications were made: In this case reporter cell lines were used (PC3 cells) that express the androgen receptor, and a reporter construct that contains luciferase under the control of a steroid hormone-responsive promoter.
For determination of the antiandrogenic efficacy, 0.05 nM R1881 was added to the cells, in order to achieve almost maximum stimulation of the reporter gene.

Protein sequences, listed by entry. Tags and fused reporters are not part of them. Residues count along the entry.
UniProt P06401, whole entry, species assumed: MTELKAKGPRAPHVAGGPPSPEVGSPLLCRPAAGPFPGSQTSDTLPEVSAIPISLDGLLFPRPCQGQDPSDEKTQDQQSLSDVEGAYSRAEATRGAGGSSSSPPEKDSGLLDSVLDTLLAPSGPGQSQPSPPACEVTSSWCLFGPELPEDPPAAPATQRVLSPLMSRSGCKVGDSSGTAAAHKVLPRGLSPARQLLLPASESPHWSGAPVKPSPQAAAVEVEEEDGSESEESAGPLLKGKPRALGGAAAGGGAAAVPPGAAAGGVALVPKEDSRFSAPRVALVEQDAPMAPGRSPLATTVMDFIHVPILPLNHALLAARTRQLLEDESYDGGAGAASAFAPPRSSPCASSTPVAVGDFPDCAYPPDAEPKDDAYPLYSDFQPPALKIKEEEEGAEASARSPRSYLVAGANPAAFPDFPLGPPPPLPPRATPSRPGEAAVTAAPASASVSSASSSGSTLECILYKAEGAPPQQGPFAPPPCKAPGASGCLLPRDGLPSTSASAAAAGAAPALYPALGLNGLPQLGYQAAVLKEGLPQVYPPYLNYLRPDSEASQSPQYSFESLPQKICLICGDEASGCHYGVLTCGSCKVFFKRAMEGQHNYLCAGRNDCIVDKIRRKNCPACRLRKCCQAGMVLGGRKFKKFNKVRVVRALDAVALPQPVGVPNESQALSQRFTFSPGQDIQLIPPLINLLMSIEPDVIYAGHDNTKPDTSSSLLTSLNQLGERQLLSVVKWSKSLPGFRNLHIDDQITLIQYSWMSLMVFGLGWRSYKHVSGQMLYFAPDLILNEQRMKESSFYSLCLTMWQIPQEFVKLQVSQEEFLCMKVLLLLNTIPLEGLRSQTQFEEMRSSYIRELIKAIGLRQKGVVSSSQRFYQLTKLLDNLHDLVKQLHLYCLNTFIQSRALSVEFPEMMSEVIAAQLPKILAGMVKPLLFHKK
UniProt P06401, 679-913: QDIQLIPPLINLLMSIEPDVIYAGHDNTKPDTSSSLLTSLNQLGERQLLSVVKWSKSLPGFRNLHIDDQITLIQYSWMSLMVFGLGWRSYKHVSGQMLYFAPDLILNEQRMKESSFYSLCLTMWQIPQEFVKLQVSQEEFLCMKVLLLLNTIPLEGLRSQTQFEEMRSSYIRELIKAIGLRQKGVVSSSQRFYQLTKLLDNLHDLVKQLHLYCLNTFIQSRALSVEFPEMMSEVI
UniProt P10275, whole entry, species assumed: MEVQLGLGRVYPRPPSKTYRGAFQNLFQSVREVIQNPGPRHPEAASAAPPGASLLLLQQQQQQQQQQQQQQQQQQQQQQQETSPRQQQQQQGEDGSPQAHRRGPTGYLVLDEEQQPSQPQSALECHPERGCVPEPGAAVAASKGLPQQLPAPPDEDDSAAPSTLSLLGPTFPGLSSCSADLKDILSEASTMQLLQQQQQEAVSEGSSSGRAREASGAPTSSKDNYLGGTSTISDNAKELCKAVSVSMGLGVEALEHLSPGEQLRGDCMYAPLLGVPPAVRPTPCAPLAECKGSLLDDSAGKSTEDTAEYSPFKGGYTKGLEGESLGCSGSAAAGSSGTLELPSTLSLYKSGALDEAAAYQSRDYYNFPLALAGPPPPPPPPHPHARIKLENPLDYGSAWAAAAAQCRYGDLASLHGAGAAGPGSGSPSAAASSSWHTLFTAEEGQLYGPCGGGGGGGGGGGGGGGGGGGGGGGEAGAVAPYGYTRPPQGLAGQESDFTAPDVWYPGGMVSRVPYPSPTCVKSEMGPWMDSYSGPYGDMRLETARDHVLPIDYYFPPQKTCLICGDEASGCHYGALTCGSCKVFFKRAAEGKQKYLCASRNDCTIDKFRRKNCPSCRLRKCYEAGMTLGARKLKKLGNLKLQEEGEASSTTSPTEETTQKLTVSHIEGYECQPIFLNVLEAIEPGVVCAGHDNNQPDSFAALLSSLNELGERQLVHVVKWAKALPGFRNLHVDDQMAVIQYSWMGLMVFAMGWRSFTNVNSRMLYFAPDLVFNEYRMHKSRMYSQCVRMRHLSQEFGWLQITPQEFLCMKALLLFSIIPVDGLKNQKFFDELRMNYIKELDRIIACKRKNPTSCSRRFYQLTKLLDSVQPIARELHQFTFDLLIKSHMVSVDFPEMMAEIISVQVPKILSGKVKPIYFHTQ

androgen receptor [2] = target: T1, androgen receptor
Experimental: 3. Androgen Receptor Binding Test:
The test was carried out as in 1., with the following modifications: cytosol from androgen receptor-expressing insect cells (Hi5) was used, and the reference substance was ^3H-testosterone.

[3] = target: fusion protein from the PR-ligand-binding domain and a Gal4-transactivation domain (Homo sapiens (Human), UniProt P06401); assay: cell-based; conditions: for Progesterone receptor Agonism efficacy: in-vitro transactivation, CHO K1 reporter cells
Experimental: 4. Determination of Progestational Action by Means of Transactivation Tests:
The test compounds were added eight hours later, and the cells were incubated with the compounds for 16 hours. The tests were carried out in triplicate. At the end of incubation the medium containing the effector was removed and replaced with lysis buffer. After luciferase assay substrate (Promega, #E1501) had been added, the 96-well plates were then put in a microplate luminometer (Pherastar, BMG Labtech), and the luminescence was measured. The IC50 values were evaluated using software for calculating dose-effect relations.

Q: What does the source list for C[C@]12CC[C@H]3[C@@H](C=CC4=CC(=O)CC[C@@H]43)[C@@H]1CC[C@@]21C=CC(=O)O1 (stereo in doubt) [Example 1, 17β-Hydroxy-19-nor-17α-pregna-4,6,20(Z)-trien-3-one-21-carboxylic acid γ-lactone]?
A: Progesterone receptor (PR) Competition factor (progesterone receptor; CF of 1 = affinity of progesterone, CF >1 lower affinity): 11.41; CF PR/CF MR (progesterone receptor): 0.35; pIC50 (progesterone receptor; read-out: Progesterone receptor (PR) IC50, receptor binding, 3H-progesterone displacement): 6.64

Q: Which “CF PR/CF MR” value (progesterone receptor) does the source give for C[C@@H]1CC2=CC(=O)CC[C@@H]2[C@H]2CC[C@@]3(C)[C@@H](CC[C@@]34C=CC(=O)O4)[C@@H]21 (stereo in doubt) [Example 2A, 17β-Hydroxy-7α-methyl-19-nor-17α-pregna-4,20(Z)-dien-3-one-21-carboxylic acid γ-lactone] here?
A: 1.10

Q: What about the pEC50 (androgen receptor [1]) of the same compound?
A: 7.80

Q: What about the pIC50 (androgen receptor [1]) of the same compound?
A: 6.00

Q: What about the “Androgen receptor Agonism efficacy” value (androgen receptor [1]; in-vitro transactivation, PC3 cells) of the same compound?
A: 64.09%

Q: And the “Androgen receptor Antagonism efficacy” value (androgen receptor [1]; in-vitro transactivation, PC3 cells, 0.05 nM R1881)?
A: 5%

Q: And the pIC50 (androgen receptor [2]; read-out: Androgen receptor IC50, receptor binding, 3H-testosterone displacement)?
A: 6.96

Q: What about the “Androgen receptor Competition factor” value (androgen receptor [2]; reference substance 3H-testosterone) of the same compound?
A: 4.8

Q: With CC[C@]12CC[C@H]3[C@@H](CC4(CC4)C4=CC(=O)CC[C@@H]43)[C@@H]1CC[C@@]21C=CC(=O)O1 [Example 16, 6,6-(1,2-Ethanediyl)-17β-hydroxy-18-methyl-19-nor-17α-pregna-4,20(Z)-dien-3-one-21-carboxylic acid γ-lactone] as the compound, how does the pEC50 [3] read?
A: 8.01

Q: And the “Progesterone receptor Agonism efficacy” value [3]?
A: 38.4%

Q: With C[C@]12CC[C@H]3[C@@H](CC4(CC4)C4=CC(=O)CC[C@@H]43)[C@@H]1CC[C@@]21C=CC(=O)O1 [Example 18, 6,6-(1,2-Ethanediyl)-17β-hydroxy-19-nor-17α-pregna-4,20(Z)-dien-3-one-21-carboxylic acid γ-lactone] as the compound, how does the pEC50 [3] read?
A: 7.35

Q: And the “Progesterone receptor Agonism efficacy” value [3]?
A: 127.0%

Reference: patent publication US8937058B2, “17-hydroxy-19-nor-21-carboxylic acid-steroid γ-lactone derivative, use thereof, and medicament containing the derivative” (priority 2007, dated 2015)
